The test deals with C3H10T1/2 cells. As to the kind of experiment: Micromass culture of MAST4 knockout cells with BMP2, alcian blue staining. Format: cell-based, mouse. As to conditions: MAST4 knockout cells, 100, 500 or 1000 ng/ml BMP2, from day 3, FIG. 6. As for the experimental part:
In detail, MAST4 knockout cells were prepared as in Example 2-1, and micromass culture was performed with reference to a known method (Differentiation and Mineralization of Murine Mesenchymal C3H10T1/2 Cells in Micromass Culture, 2010, Rani Roy). First, 10 μl of a medium containing total 10^5 fibroblast cells were put in the center of each well of a 12-well plate, and incubated for 2 hours. 1 ml of DMEM containing 10% FBS was added to each well. Thereafter, 100 ng/ml, 500 ng/ml, or 1000 ng/ml of BMP2 was added to each culture depending on the purpose of cartilage induction, respectively. Thereafter, the medium was replaced with a fresh medium every three days.
In detail, plates of cells corresponding to each date were washed twice with PBS and fixed for 15 minutes by adding 1 ml of 4% paraformaldehyde. Then, 1 ml of 1% alcian blue 8-GX (Sigma-Aldrich, A5268) dissolved in 0.1 N HCl (pH 1.0) was added and stained overnight. After washing twice with 500 μl of 0.1 N HCl, images were obtained.

B1: BMP2: chondrogenic inducer added to micromass culture (protein, UniProt P12643 283-396, looked up)
Bone morphogenetic protein 2: QAKHKQRKRLKSSCKRHPLYVDFSDVGWNDWIVAPPGYHAFYCHGECPFPLADHLNSTNHAIVQTLVNSVNSKIPKACCVPTELSAISMLYLDENEKVVLKNYQDMVVEGCGCR
As for B1, the “degree of chondrogenesis and extracellular matrix secretion (alcian blue staining)” value is “increased with increasing BMP2 concentration”.
